Assay results published in patent US20260234107A1, “T[…] METHODS OF TREATING MOOD DISORDERS” (priority 2022, published 2026).

Amino acid sequences for entries named in this document (tags omitted).
UniProt P41595, whole entry, species assumed: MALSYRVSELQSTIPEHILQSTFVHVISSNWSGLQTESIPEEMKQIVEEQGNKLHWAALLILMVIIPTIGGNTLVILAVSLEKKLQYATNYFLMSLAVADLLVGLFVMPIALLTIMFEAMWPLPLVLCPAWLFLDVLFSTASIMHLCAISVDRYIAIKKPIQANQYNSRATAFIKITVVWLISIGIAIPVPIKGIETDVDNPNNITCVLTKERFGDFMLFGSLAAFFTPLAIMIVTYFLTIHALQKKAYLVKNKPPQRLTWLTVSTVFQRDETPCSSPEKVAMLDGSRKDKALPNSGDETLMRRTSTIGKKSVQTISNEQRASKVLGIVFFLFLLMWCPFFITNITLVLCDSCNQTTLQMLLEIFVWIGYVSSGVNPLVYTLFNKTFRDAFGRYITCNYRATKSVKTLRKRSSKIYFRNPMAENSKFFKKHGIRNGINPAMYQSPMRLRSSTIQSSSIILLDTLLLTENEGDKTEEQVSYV
UniProt P08908, whole entry, species assumed: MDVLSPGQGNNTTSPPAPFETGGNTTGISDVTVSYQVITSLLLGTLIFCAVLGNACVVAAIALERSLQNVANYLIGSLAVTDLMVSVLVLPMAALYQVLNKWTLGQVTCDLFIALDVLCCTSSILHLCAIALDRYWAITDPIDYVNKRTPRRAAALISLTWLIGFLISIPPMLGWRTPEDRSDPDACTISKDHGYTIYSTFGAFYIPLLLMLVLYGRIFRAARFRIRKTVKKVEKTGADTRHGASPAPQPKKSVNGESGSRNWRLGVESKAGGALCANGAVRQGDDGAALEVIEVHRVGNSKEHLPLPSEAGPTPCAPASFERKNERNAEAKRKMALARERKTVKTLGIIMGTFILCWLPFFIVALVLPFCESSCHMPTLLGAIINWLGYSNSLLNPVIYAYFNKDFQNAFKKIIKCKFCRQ
UniProt P28223, whole entry: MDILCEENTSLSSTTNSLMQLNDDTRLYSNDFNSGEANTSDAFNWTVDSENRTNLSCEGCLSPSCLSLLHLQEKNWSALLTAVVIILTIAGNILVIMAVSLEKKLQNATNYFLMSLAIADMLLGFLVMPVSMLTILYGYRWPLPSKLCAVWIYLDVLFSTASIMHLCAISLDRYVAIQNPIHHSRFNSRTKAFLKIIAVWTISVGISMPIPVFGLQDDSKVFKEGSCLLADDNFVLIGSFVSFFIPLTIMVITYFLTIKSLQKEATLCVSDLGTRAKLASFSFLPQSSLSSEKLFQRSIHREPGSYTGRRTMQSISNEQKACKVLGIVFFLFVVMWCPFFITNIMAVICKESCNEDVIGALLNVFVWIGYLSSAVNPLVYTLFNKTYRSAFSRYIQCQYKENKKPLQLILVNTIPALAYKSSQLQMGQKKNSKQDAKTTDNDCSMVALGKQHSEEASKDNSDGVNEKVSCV

Assays:
5-HT2B = target: T1, 5-HT2B (Homo sapiens, UniProt P41595); assay: FLIPR Ca2+ flux agonist assay at 5-HT2B; assay type: cell-based; settings: for 5-HT2B % Act @ Max Dose: HEK293, max dose
T1 construct: host or cells: HEK293

5-HT1A = target: T2, 5-HT1A (Homo sapiens, UniProt P08908); assay: FLIPR Ca2+ flux agonist assay at 5-HT1A; assay type: cell-based; settings: for 5-HT1A % Act @ Max Dose: Ca2+ flux, CHO cells
T2 construct: host or cells: CHO cells

5-HT2A [1] = target: T3, 5-HT2A (Homo sapiens, UniProt P28223); assay: FLIPR Ca2+ flux agonist assay at 5-HT2A; assay type: cell-based; set-up: host or cells: HEK293; settings: for 5-HT2A % Act @ Max Dose: Ca2+ flux, HEK293, max dose
5-HT2A [2] = target: T3, 5-HT2A; assay: 5-HT2A receptor radioligand binding ([3H]ketanserin)
Protocol: The binding affinities of disclosed compounds at the ketanserin binding site of the 5-HT2A receptor were determined in radioligand binding experiments.
Method. Affinity of the test compounds for the 5-HT2A receptor was determined in radioligand binding experiments with [^3H]ketanserin by WuXi AppTec (Hong Kong) Limited, using methods adapted from the literature and under conditions described in Table 4.

[3] = test system: monoamine oxidase A and B (MAO-A and MAO-B); assay: Stability in the presence of monoamine oxidases (human liver mitochondria preparation); set-up: dose or concentration left out as unconfirmed; settings: pH 7.4
Protocol: Liver Mitochondria Incubations. Human liver mitochondria (Xenotech H0610.M) were used.

Compound | EC50 (5-HT2B) [nM] | 5-HT2B % Act @ Max Dose (5-HT2B; Ca2+ flux) [%] | EC50 (5-HT1A) [nM] | 5-HT1A % Act @ Max Dose (5-HT1A) [%] | EC50 (5-HT2A [1]) [nM] | 5-HT2A % Act @ Max Dose (5-HT2A [1]) [%] | Ki (5-HT2A [2]) [nM] | microsomal CLint [3] [µL/min/mg] | agonism at 5-HT2B (in words) (5-HT2B; Ca2+ flux)
CCNCCc1c[nH]c2cccc(O)c12 [Compound 5, 3-(2-(ethylamino)ethyl)-1H-indol-4-ol] | 276 | 18.58 | 27200 | 38.71 | 14 | 107.9 |  |  | 
CCCNCCc1c[nH]c2cccc(O)c12 [Compound 3, 3-(2-(propylamino)ethyl)-1H-indol-4-ol] |  | 1.06 |  |  | 29.3 | 90.1 | 1000 |  | 
C=CCNCCc1c[nH]c2cccc(O)c12 [Compound 23, 3-(2-(allylamino)ethyl)-1H-indol-4-ol] | 89 | 47.88 | > 100000 | 9.13 | 15.9 | 85.46 |  | < 15.9 | 
CNCCc1c[nH]c2cccc(O)c12 [Compound 2, 3-(2-(methylamino)ethyl)-1H-indol-4-ol] |  | 1.79 | 23000 | 64.8 | 15.8 | 89.4 |  |  | 
CC(C)NCCc1c[nH]c2cccc(O)c12 [Compound 6, 3-(2-(isopropylamino)ethyl)-1H-indol-4-ol] | 999 | 21.48 |  |  | 22.5 | 83.8 |  |  | partial agonism at 5-HT2B
